{"sequences": {"note": "Sequences of proteins named here, by UniProt entry; tags and fusion partners are left off.", "UniProt P21554, whole entry": "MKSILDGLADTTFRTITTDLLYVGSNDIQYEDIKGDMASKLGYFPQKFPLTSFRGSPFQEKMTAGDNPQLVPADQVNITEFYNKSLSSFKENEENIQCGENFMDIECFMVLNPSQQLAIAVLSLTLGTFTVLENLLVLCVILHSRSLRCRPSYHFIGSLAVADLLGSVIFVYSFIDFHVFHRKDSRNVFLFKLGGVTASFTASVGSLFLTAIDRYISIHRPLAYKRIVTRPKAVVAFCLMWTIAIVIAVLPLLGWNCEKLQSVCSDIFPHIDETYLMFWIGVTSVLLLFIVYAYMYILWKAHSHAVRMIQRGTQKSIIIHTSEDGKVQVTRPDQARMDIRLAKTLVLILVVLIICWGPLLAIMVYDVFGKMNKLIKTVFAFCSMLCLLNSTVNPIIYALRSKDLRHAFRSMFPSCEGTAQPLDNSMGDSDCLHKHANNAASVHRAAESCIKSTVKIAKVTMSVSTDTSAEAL"}, "source": "ChEMBL document CHEMBL2429762", "about": "“Structure-activity relationship study of indole-2-carboxamides identifies a potent allosteric modulator for the cannabinoid receptor 1 (CB1)” (J Med Chem, 2013)", "target": "Cannabinoid receptor 1 (Homo sapiens) (UniProt P21554)", "assay": "Positive allosteric modulation of CB1 receptor (unknown origin) expressed in HEK293 cell membranes assessed as stimulation of [3H]CP55,940 binding after 60 mins by liquid scintillation counting analysis", "procedure,_shortened": "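Nonspecific binding was taken with 1 μM unlabeled CP55,940. Samples were filtered on GF/C and counted by scintillation. Runs were in duplicate, ≥3 experiments. α and KB came from nonlinear regression to the allosteric ternary complex model, with [A] and KA fixed.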", "data": [{"smiles": "CCCCCc1c(C(=O)NCCc2ccc(N3CCCCC3)cc2)[nH]c2ccc(Cl)cc12", "values": [{"measurement": "Kb", "value": 470, "unit": "nM"}]}]}
